PglD inh = inhibitors of Campylobacter jejuni PglD acetyltransferase; inhibition, % at 12.5 µM; purified PglD enzyme, DTNB colorimetric CoA detection; hit rate 0.098% among 360,000; in the data active = inhibition above about 16%, passing the limit was not always enough
E-sel inducer = induces E-selectin expression in human endothelial cells; P16581; HUVEC E-selectin immunofluorescence imaging; normalized: neutral wells 0, TNF-alpha wells 100; activation, % at 7.58 µM; hit rate 0.37% among 260,000; AID 686992;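 active = mean E-selectin-positive cell signal at least 10% of the positive control, reached in at least 60% of replicates, without over 20% cell loss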
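Read-out: % PE-positive cells | Test system: HUVEC | Doses: One compound dose added by pin transfer | Buffer or medium: EGM-2 over gelatin coat | Signal: Immunofluorescence imaging | Benchmarks: TNF-alpha, DMSO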
UUG fidelity = alters start codon recognition fidelity in yeast | S. cerevisiae UUG-firefly luciferase reporter, luminescence/redox ratio | activity score, % at 18.7 µM | 350,000 compounds, 0.13% hits | AID 602363;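 active = replicate mean at a twofold rise or more, about +100% in these data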;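 note: firefly luciferase made from a UUG start codon reports start codon fidelity; reporter light over untreated wells divided by growth signal over untreated wells; some hits fall short of that in this replicate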
Statin myotox sup = protects C2C12 myotubes from simvastatin toxicity; hit rate 0.78% among 330,000; ATP luminescence, 48 h; scaled: DMSO 0, geranylgeraniol control 100; rescue of ATP level, % at 7.49 µM;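 active = mean ATP rescue above about 67%, or every replicate alone reaching that limit, limit read from the data, passing the limit was not always enough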;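 also: myotubes were challenged with 10 µM simvastatin during compound exposure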
esBAF inh = inhibitors of esBAF chromatin remodeling in mouse ES cells | Bmi1-luciferase knock-in reporter, 24 h; 100% = twice the neutral-well signal | reporter increase, % at 12.5 µM | hit rate 2% among 350,000 | AID 602393; in the data active = activation above about 40%;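 also: 0% = median of the plate's neutral control wells and 100% = double that signal; a rise in the Bmi1 reporter signal indicates esBAF inhibition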
PGC1a acetyl inh = modulators of PGC1a acetylation | hit rate 0.17% among 350,000 | inhibition, % at 15.6 µM | U2OS PGC1a acetylation, AlphaScreen anti-acetyl-lysine; with virally co-expressed GCN5 acetyltransferase;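 active = every replicate shows inhibition of at least 40%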;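 also: 0% = neutral control wells and 100% = positive control wells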
Numbers without * were called inactive; x = no result. An excerpt weighted towards active compounds, which were near 2.8% of everything screened.

#1 CCc1ccc(-c2ccc(SCC(=O)NC3CCCC3)nn2)cc1
#2 COc1ccc(S(=O)(=O)N[C@H]2CC[C@H](CCn3cc(-c4ccccc4F)nn3)O[C@@H]2CO)cc1
#3 COc1ccccc1-c1noc(-c2ccncc2)n1
#4 COc1ccccc1-c1noc(-c2cccs2)n1
#5 COc1ccccc1-c1nc(-c2ccc(C)nc2OC)no1
#6 COc1nc(C)ccc1-c1noc(-c2ccccn2)n1
#7 O=C(C1CCCC1)N1CC(=O)N2[C@@H](CO)[C@@H](c3ccc(-c4ccccc4F)cc3)[C@@H]2C1
#8 COc1ccccc1NC(=O)c1ccc2[nH]c(C)c(C)c2c1

| Assay by compound | 1 | 2 | 3 | 4 | 5 | 6 | 7 | 8 |
| --- | --- | --- | --- | --- | --- | --- | --- | --- |
| PglD inh | -5.0 | -2.0 | -2.9 | -0.1 | 1.7 | 3.2 | x | -4.2 |
| E-sel inducer | -0.1 | -0.1 | x | x | -0.8 | x | 0.6 | x |
| UUG fidelity | -14.7 | 6.4 | -29.3 | -18.1 | -0.8 | -17.6 | x | 4.0 |
| Statin myotox sup | 0.6 | 6.8 | 112.0* | 223.5* | -8.2 | -22.9 | x | -17.6 |
| esBAF inh | 47.2* | 5.6 | 45.8* | 54.8* | 68.7* | -26.2 | x | 66.4* |
| PGC1a acetyl inh | 2.6 | -10.8 | 0.6 | -1.9 | 2.3 | x | -0.5 | -14.0 |

Filtered by structure: those above with fluorine
#2 COc1ccc(S(=O)(=O)N[C@H]2CC[C@H](CCn3cc(-c4ccccc4F)nn3)O[C@@H]2CO)cc1
#7 O=C(C1CCCC1)N1CC(=O)N2[C@@H](CO)[C@@H](c3ccc(-c4ccccc4F)cc3)[C@@H]2C1

| Assay by compound | 2 | 7 |
| --- | --- | --- |
| PglD inh | -2.0 | x |
| E-sel inducer | -0.1 | 0.6 |
| UUG fidelity | 6.4 | x |
| Statin myotox sup | 6.8 | x |
| esBAF inh | 5.6 | x |
| PGC1a acetyl inh | -10.8 | -0.5 |

(list continues)
#9 Cc1[nH]c2ccc(C(=O)NC3CCCC3)cc2c1C
#10 Cc1[nH]c2ccc(C(=O)NC3CCC(C)CC3)cc2c1C (stereo not drawn)
#11 C[C@H](CO)N1C[C@H](C)[C@H](CN(C)C(=O)Nc2ccc3c(c2)OCO3)Oc2cc(C#Cc3cccnc3)ccc2S1(=O)=O
#12 CC1CCN(C(=O)COC(=O)c2cc3ccccc3oc2=O)CC1
#13 CC1CCCC(NC(=O)COC(=O)c2cc3ccccc3oc2=O)C1C (stereo not drawn)
#14 CNC[C@@H]1OCCCC[C@@H](C)Oc2ccc(NC(=O)Nc3c(C)noc3C)cc2C(=O)N([C@H](C)CO)C[C@H]1C
#15 CN1CCN(c2ccc([N+](=O)[O-])c(-n3nc(-c4ccccc4)c4ccccc4c3=O)c2)CC1
#16 Cc1nn(-c2cc(N3CCNCC3)ccc2[N+](=O)[O-])c(=O)c2ccccc12

| Assay by compound | 9 | 10 | 11 | 12 | 13 | 14 | 15 | 16 |
| --- | --- | --- | --- | --- | --- | --- | --- | --- |
| PglD inh | -0.3 | 0.7 | -0.2 | 0.8 | 0.3 | 2.0 | x | 0.9 |
| E-sel inducer | 0.4 | x | 1.7 | -0.2 | -0.3 | 0.1 | x | x |
| UUG fidelity | -9.2 | -14.5 | 13.4 | -11.6 | 3.2 | 0.7 | -13.2 | -3.6 |
| Statin myotox sup | -4.6 | -85.9 | -58.5 | 5.3 | 4.0 | -25.2 | 80.0* | -8.7 |
| esBAF inh | 27.7 | 55.9* | -4.3 | 3.8 | 68.1* | 0.2 | 1.2 | -0.7 |
| PGC1a acetyl inh | 0.0 | x | -3.0 | -15.5 | 5.0 | 14.5 | 38.2 | -21.8 |

Whole records as entered above:
`CNC[C@@H]1OCCCC[C@@H](C)Oc2ccc(NC(=O)Nc3c(C)noc3C)cc2C(=O)N([C@H](C)CO)C[C@H]1C` across the screens: PglD inh: 2.0; E-sel inducer: 0.1; UUG fidelity: 0.7; Statin myotox sup: -25.2; esBAF inh: 0.2; PGC1a acetyl inh: 14.5
`C[C@H](CO)N1C[C@H](C)[C@H](CN(C)C(=O)Nc2ccc3c(c2)OCO3)Oc2cc(C#Cc3cccnc3)ccc2S1(=O)=O` across the screens: PglD inh: -0.2; E-sel inducer: 1.7; UUG fidelity: 13.4; Statin myotox sup: -58.5; esBAF inh: -4.3; PGC1a acetyl inh: -3.0

The list continues:
#17 CC(C)NC(=S)N=Nc1c(O)[nH]c2ccc(C(C)C)cc12
#18 C[C@@H]1CCCCO[C@H](CN(C)C(=O)Nc2ccc(C(F)(F)F)cc2)[C@H](C)CN([C@H](C)CO)C(=O)c2cc(NC(=O)Nc3cccc4ccccc34)ccc2O1
#19 C[C@H](CO)N1C[C@H](C)[C@@H](CN(C)S(C)(=O)=O)Oc2ccc(NS(=O)(=O)c3ccc(Cl)cc3)cc2C1=O
#20 O=C(CSCc1cnn(-c2ccccc2)c1-n1cccc1)NCc1cccs1
#21 CCCCCOc1ccc(CSc2ncn[nH]2)cc1
#22 CCCCOc1ccc(CSc2ncn[nH]2)cc1
#23 COc1ccc2[nH]c(=O)c(CN(c3ccccc3OC)S(=O)(=O)c3ccccc3)cc2c1
#24 COc1ccc2[nH]c(=O)c(CN(c3ccccc3)S(=O)(=O)c3ccccc3)cc2c1

| Assay by compound | 17 | 18 | 19 | 20 | 21 | 22 | 23 | 24 |
| --- | --- | --- | --- | --- | --- | --- | --- | --- |
| PglD inh | 4.9 | 1.8 | x | 1.7 | 1.1 | 2.4 | -222.7 | -5.0 |
| E-sel inducer | 0.7 | 0.2 | -0.9 | x | x | x | 0.1 | 86.4* |
| UUG fidelity | -1.0 | -10.7 | -8.6 | 0.3 | -9.7 | -24.6 | -14.4 | 5.4 |
| Statin myotox sup | -16.7 | -17.4 | x | 121.0* | -13.1 | x | -9.8 | -2.9 |
| esBAF inh | -8.5 | 0.1 | -3.2 | 7.1 | 46.6* | 33.1 | 7.2 | 4.8 |
| PGC1a acetyl inh | 47.5* | x | -20.5 | -3.6 | -12.6 | -15.6 | -2.1 | -0.2 |

#25 COc1ccc(NCc2cc3cc(OC)ccc3[nH]c2=O)cc1
#26 COc1ccc2[nH]c(=O)c(CNc3cccc(C)c3)cc2c1
#27 Cc1cc(C(=O)CSc2nnnn2-c2ccccc2)c(C)n1CCc1ccccc1
#28 O=C(O)C1C2CC3OC(=O)C1C3C2 (stereo not drawn)
#29 C[C@@H]1CN([C@@H](C)CO)C(=O)c2cc(NS(C)(=O)=O)ccc2O[C@@H](C)CCCCO[C@H]1CN(C)Cc1ccncc1
#30 Cc1ccc(NC(=O)c2cccc3cccnc23)cc1
#31 O=C(NCCc1ccccc1F)c1cccc2cccnc12
#32 COc1ccccc1C(=O)Nc1cccc2cccnc12

| Assay by compound | 25 | 26 | 27 | 28 | 29 | 30 | 31 | 32 |
| --- | --- | --- | --- | --- | --- | --- | --- | --- |
| PglD inh | 4.2 | 2.9 | -1.3 | -0.3 | 5.0 | -3.7 | -0.3 | -0.8 |
| E-sel inducer | x | x | x | 0.0 | x | 0.4 | x | x |
| UUG fidelity | -11.9 | 1.6 | -11.3 | -14.9 | 10.7 | -9.1 | 0.2 | -11.5 |
| Statin myotox sup | 3.5 | 29.2 | 107.3* | 4.3 | -7.0 | -4.3 | 7.8 | -26.1 |
| esBAF inh | 22.9 | 56.1* | -2.8 | 3.1 | 0.5 | 64.4* | 66.3* | 64.1* |
| PGC1a acetyl inh | 6.7 | -9.1 | -4.1 | 61.8* | -1.5 | x | x | x |

#33 CC(=O)Nc1cccc(NC(=O)c2cccc3cccnc23)c1
#34 C[C@@H]1CCCCO[C@H](CN(C)C(=O)CCCN(C)C)[C@@H](C)CN([C@H](C)CO)C(=O)c2cc(NC(=O)CCCN(C)C)ccc2O1
#35 O=C1c2ccccc2NC2(CCCCC2)N1c1ccc(O)cc1
#36 CCOC(=O)c1ccc(CC(=O)c2ccc(O)cc2O)o1
#37 CCc1nnc(N/N=C/c2ccccc2Cl)n1N
#38 C/C(=N\Nc1ccc(C(=O)O)cc1)c1ccc(Br)cc1
#39 C/C(=N\Nc1ccc(C(=O)O)cc1)c1ccc(Cl)s1
#40 CCC1=C(c2ccc(C)cc2)S(=O)(=O)N=C1N1CCC(C(=O)NCCCN2CCCCC2C)CC1 (stereo not drawn)

| Assay by compound | 33 | 34 | 35 | 36 | 37 | 38 | 39 | 40 |
| --- | --- | --- | --- | --- | --- | --- | --- | --- |
| PglD inh | 3.0 | x | 4.8 | x | -2.5 | -2.8 | 4.6 | 0.9 |
| E-sel inducer | -0.1 | x | x | x | x | 0.0 | 0.0 | x |
| UUG fidelity | -17.7 | x | -40.9 | x | -16.7 | -10.9 | -31.9 | 2.3 |
| Statin myotox sup | 9.6 | x | 136.8* | 3.4 | -26.2 | -33.4 | -4.4 | 115.4* |
| esBAF inh | 5.7 | x | 3.9 | 49.1* | -36.7 | -20.0 | 67.0* | -1.3 |
| PGC1a acetyl inh | x | 3.2 | -1.5 | -0.2 | 72.1* | -11.8 | x | 1.9 |

#41 Cc1ccc(C(=O)c2ccccc2C(=O)OCC(=O)NC(C)(C)C)cc1
#42 Nc1cc(Cl)ccc1C(=O)OCC(=O)N1CCCCCC1
#43 Cc1ccc(C(=O)c2ccccc2C(=O)OCC(=O)N2CCCC2)cc1
#44 Cc1cccc(C(=O)OCC(=O)N2CCCCCC2)c1C
#45 O=C(OCC(=O)N1CCCCC1)c1ccccc1SCC(=O)N1CCCCC1
#46 C[C@@H]1CN([C@H](C)CO)C(=O)Cc2cc(NC(=O)NC3CCCCC3)ccc2O[C@H]1CN(C)C(=O)Nc1ccc2c(c1)OCO2
#47 CC(C)CC#Cc1ccc2c(c1)O[C@H](CN(C)C)[C@@H](C)CN([C@@H](C)CO)S2(=O)=O
#48 C/C(=N\Nc1ccccn1)c1ccc(N2CCOCC2)cc1
#49 C/C(=N\Nc1ccccn1)c1ccc(C(C)C)cc1
#50 C/C(=N\Nc1nc2ccccc2[nH]1)c1ccc2c(c1)OCO2

| Assay by compound | 41 | 42 | 43 | 44 | 45 | 46 | 47 | 48 | 49 | 50 |
| --- | --- | --- | --- | --- | --- | --- | --- | --- | --- | --- |
| PglD inh | 6.2 | -4.3 | 2.6 | 8.5 | -6.1 | 3.7 | 1.7 | x | -2.9 | 8.5 |
| E-sel inducer | 5.0 | x | 0.2 | -0.1 | 4.4 | -12.3 | x | 1.6 | -1.5 | x |
| UUG fidelity | -13.6 | -4.4 | -16.9 | 44.7 | 13.3 | 13.8 | 22.9 | x | -21.1 | -20.1 |
| Statin myotox sup | -16.3 | -9.9 | -2.3 | 1.6 | 10.4 | -17.1 | -2.1 | x | -16.0 | -27.2 |
| esBAF inh | -4.5 | 52.7* | 42.9* | 63.5* | 6.9 | 5.2 | 1.1 | x | 63.9* | 11.5 |
| PGC1a acetyl inh | 0.4 | 0.5 | 3.8 | 11.5 | -2.5 | 0.7 | -14.9 | -1.0 | x | -10.1 |
